Source: paper PMC7155171, “Probing the Open Global Health Chemical Diversity Library for Multistage-Active Starting Points for Next-Generation Antimalarials” (ACS Infectious Diseases, 2020)

Tested on: P. falciparum Dd2 (PfLuc) line expressing firefly luciferase, asexual blood stage
Test: microbe, parasite or virus in culture
Type: cell-based
Conditions: Plasmodium falciparum, DD2, 96 h, read-out: average potency at 96 h in the luciferase assay

CCC[C@@H]1C[C@@H](C(=O)N[C@@H]([C@H]2O[C@H](SC)[C@H](O)[C@@H](O)[C@H]2O)[C@H](C)Cl)N(C)C1 [clindamycin, reference compound]
IC50: 5.2 ± 1.25 nM
